In experiment [1] the target is T1, human PCSK9, V5- and His-tagged (hPCSK9v5His) (human, UniProt Q8NBP7 31-692).
T1 construct: Recombinant secreted protein; Peptides 31-49 (prodomain) and 153-; also called wt-hPCSK9; wt-PCSK9; not shown: V5 and His tags
Kind of experiment: SPR (Biacore 2000), Fab captured on anti-Fab IgG, PCSK9 in flow; mean N=3.

Protein sequences, listed by entry. Tags and fused reporters are not part of them. Residues count along the entry.
UniProt Q8NBP7, 31-692 limits assumed: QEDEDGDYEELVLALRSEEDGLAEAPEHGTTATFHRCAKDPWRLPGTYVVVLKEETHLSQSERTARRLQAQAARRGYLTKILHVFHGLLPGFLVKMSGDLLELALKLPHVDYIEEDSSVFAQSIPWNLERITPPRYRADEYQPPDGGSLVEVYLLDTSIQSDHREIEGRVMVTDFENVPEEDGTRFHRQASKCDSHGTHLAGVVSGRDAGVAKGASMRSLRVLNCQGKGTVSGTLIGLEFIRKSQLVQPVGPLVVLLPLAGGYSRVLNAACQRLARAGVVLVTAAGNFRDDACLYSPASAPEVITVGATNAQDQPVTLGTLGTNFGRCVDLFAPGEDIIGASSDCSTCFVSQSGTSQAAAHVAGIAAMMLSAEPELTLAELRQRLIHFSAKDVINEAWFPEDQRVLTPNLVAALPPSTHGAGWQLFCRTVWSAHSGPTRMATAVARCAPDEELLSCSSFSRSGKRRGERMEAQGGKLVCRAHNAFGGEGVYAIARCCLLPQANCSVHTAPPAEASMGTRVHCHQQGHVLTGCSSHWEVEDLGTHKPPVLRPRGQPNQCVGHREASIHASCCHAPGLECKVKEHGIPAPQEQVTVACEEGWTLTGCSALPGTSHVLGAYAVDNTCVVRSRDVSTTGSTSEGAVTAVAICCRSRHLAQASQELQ
UniProt Q80W65, 35-694 limits assumed: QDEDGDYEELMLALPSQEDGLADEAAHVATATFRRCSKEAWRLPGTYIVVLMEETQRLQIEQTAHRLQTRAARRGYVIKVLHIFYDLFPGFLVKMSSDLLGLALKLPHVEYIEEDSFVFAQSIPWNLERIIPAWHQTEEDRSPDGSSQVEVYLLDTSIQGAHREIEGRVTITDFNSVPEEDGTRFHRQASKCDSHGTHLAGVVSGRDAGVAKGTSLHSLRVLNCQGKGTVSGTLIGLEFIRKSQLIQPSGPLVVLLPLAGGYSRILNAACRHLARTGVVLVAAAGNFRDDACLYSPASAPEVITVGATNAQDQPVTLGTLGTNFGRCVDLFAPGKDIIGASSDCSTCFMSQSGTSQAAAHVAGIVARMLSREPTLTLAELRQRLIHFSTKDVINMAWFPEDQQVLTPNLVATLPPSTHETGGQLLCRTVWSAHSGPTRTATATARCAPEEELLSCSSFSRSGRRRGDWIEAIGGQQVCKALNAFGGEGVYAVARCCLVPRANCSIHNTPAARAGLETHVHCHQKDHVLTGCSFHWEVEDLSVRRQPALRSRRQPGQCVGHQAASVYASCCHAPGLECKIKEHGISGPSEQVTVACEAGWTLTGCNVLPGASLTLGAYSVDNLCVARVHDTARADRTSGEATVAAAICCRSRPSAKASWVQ

Experiment [2] deals with T2, murine PCSK9, V5- and His-tagged (mPCSK9v5His) (murine, UniProt Q80W65 35-694).
T2 construct: also called mouse PCSK9; not shown: V5 and His tags
The experiment is described as above.

Experiment [3] addresses T1, human PCSK9, V5- and His-tagged …. Nature of the experiment: cell-based or functional assay.
The target of experiment [4] is T3, PCSK9 (V5/His-PCSK9; AlexaFluor647-labeled PCSK9), species not stated in Examples 8, 10 and 13 (UniProt Q8NBP7 31-692, limits assumed, AlexaFluor 647 label in Examples 8 and 10; unlabeled in Example 13). Kind of experiment: cell-based or functional assay.
Experiment [5] deals with T3, PCSK9 (V5/His-PCSK9; …). Nature of the experiment: TR-FRET PCSK9-LDLR interaction assay: antibody titrated against AF647-PCSK9 (10 nM) and Eu-labeled LDLR ectodomain (~1.5 nM); the blocked ligand is LDLR.
Experiment [6] addresses T3, PCSK9 (V5/His-PCSK9; …). Kind of experiment: TR-FRET PCSK9-1D05 competition assay: unlabeled Fab titrated against V5/His-PCSK9 (10 nM) with AF647-anti-V5 (10 nM); the competitor is Eu(8044)-1D05 IgG (~1.5 nM).
Experiment [7] has as its target T1, human PCSK9, V5- and His-tagged …. Kind of experiment: SPR (Biacore 2000), IgG captured on goat anti-human IgG, PCSK9 in flow; mean N=2.
Experiment [8] concerns the target T2, murine PCSK9, V5- and His-tagged …. The description is as above.

B1: m2CX1D05 Fab (Fab, V domains shown)
VH: QVQLVQSGAEVKKPGSSVKVSCKASGGTFNSHAISWVRQAPGQGLEWMGGINPILGIANYAQKFQGRVTITADESTSTAYMELSSLRSEDTAVYYCARHYEIQIGRYGMNVYYLMYRFASWGQGTLVTVSS
VL: DIQMTQSPSSLSASVGDRVTITCRASQGIRSALNWYQQKPGKAPKLLIYNGSTLQSGVPSRFSGSGSGTDFTLTISSLQPEDFAVYYCQQFDGDPTFGQGTKVEIKR
notes: also called Fab 1D05; mPCSK9 2CX1D05 Fab
In experiment [1], B1 displayed a Kd of 11.5 nM, a dissociation rate constant (koff) of 0.000247 s⁻¹ and an on-rate constant (kon) of 22000 M⁻¹ s⁻¹. In experiment [2], the koff was determined as 0.000257 s⁻¹ and the kon was found to be 86000 M⁻¹ s⁻¹. In experiment [3], the “IC50, inhibition of PCSK9-dependent loss of cellular LDL uptake (Exopolar assay, HEK cells, PCSK9 5 ug/ml)” value came out at 144 nM. In addition, the “IC50, inhibition of uptake of AF647-labeled WT PCSK9 (5 ug/ml) into HEK293 or HepG2 cells, by imaging” value with PCSK9 (V5/His-PCSK9; …) [4] is ~80 nM. Half-maximal inhibition in the experiment with PCSK9 (V5/His-PCSK9; …) [5] (IC50) required 15.8 nM. The molecule also displayed an IC50 in the experiment with PCSK9 (V5/His-PCSK9; …) [6] of 33 nM.

B2: 1D05 IgG2m4 (antibody, V domains shown)
VH: B1 VH
VL: B1 VL
notes: also called M2CX1D05 (IgG); IgG 1D05
As for B2, in experiment [7], the dissociation constant (Kd) is 3.6 nM, the off-rate constant (koff) amounted to 0.000316 s⁻¹ and the on-rate constant (kon) is 88000 M⁻¹ s⁻¹. In experiment [8], the off-rate (koff) was 0.000215 s⁻¹ and the on-rate constant (kon) came to 67000 M⁻¹ s⁻¹. For the same molecule, the “IC50, inhibition of PCSK9-dependent loss of cellular LDL uptake (Exopolar assay, HEK cells, PCSK9 5 ug/ml)” value in experiment [3] was determined as 79 nM. In addition, the IC50 with PCSK9 (V5/His-PCSK9; …) [5] was found to be 3.7 nM.

Source of the values: patent publication US20120301461A1 (Merck Sharp & Dohme, published 2012).
